In article PMC7769078 (International Journal of Nanomedicine, 2020):

Experiments:
MDCK cells [1] = assay: MTT viability assay in MDCK cells; assay type: cell-based, canine; settings: 1–100 μM, 24 h
MDCK cells [2] = assay: Cellular GB uptake in MDCK cells; assay type: cell-based, canine; settings: GB concentration 20 μM, 2 h
MDCK cell monolayers = assay: Permeation across MDCK cell monolayers; assay type: in vitro ADME, canine; settings: apical-to-basolateral, 20 μM GB, HBSS pH 7.4
[3] = Plasma pharmacokinetics after oral administration to rats; assay type: in vivo, Sprague-Dawley (SD) rats; settings: rat, 4 mg/kg GB
[4] = Brain pharmacokinetics after oral administration to rats; assay type: in vivo, Sprague-Dawley (SD) rats; settings: rat, 4 mg/kg GB

With Ginkgolide B [GB] the “cytotoxic impact on MDCK cells” value (MDCK cells [1]) was “no significant cytotoxicity”, the “cellular GB uptake” value (MDCK cells [2]) was 0.98 ± 0.07 μg/mg protein and the Papp (MDCK cell monolayers) was 1.08 ± 0.13×10^−5 cm/s. The “Cmax, plasma” value [3] was 350 ± 40 ng/mL, the “T1/2, plasma” value [3] was 2.39 ± 0.32 h and the “AUC0-t, plasma” value ([3]; 48 h) was 3430 ± 370 ng·h/mL. The “Cmax, brain” value [4] was 0.09 ± 0.01 µg/g, the “Tmax, brain” value [4] was 4.73 ± 0.51 h and the “AUC0-t, brain” value ([4]; 48 h) was 1.05 ± 0.11 µg·h/g.
